SMILES strings stand for the structures.

A short description of the data set: Excipient compatibility study: binary mixtures of Compound B and excipient in open vials, assay and related substances (RS). It counts as physicochemical. To be noted: 2 weeks, 50° C./11% RH. The procedure: Phase one of Compound B drug product development was initiated with an excipient compatibility study to identify excipients physically and chemically compatible with Compound B API. Commonly used excipients for oral solid dosage formulations were evaluated for this study including fillers, binders, disintegrants, glidants, lubricants and organic acid stabilizers.
Samples were prepared with a binary mixture of Compound B and an excipients from Table 1. Briefly, each excipient and API were individually weighed and filled in vials, followed by the addition of glass beads. The samples were closed, vortexed, and refrigerated at 2 to 8° C. prior to initiation of study as the sample preparation was executed over a period of 10 days. All vials were removed from the refrigerator and allowed to equilibrate to room temperature, then opened, and stored at the designated storage conditions at the same t=0.
The sample of Compound B API and excipients were stored as binary mixtures in open vials at 50° C./11% RH and 50° C./75% RH conditions and evaluated at t=0, 1 week, and 2 weeks for appearance, assay, and RS.

For `CN1CCN(C(=O)[C@H](CCCN[C@@H]2C[C@H]2c2ccc(F)cc2)NC(=O)c2ccc(-n3ccnn3)cc2)CC1.Cc1ccc(S(=O)(=O)O)cc1` [Compound B, N—((S)-5-((1R,2S)-2-(4-fluorophenyl)cyclopropylamino)-1-(4-methylpiperazin-1-yl)-1-oxopentan-2-yl)-4-(1H-1,2,3-triazol-1-yl)benzamide ditosylate], the “Related substance RRT 1.022” value was 0.0489 and the Related substance RRT 1.081 came to 0.059%.

The values are drawn from patent US20230293495A1, “PHARMACEUTICAL FORMULATIONS FOR TREATING DISEASES MEDIATED BY KDM1A” (Imago Biosciences, Inc., priority 2020, published 2023).
